According to PubChem BioAssay AID1418 (Emory University Molecular Libraries Screening Center, 2008):
The source made the active and inactive calls. The rule behind the calls is not given here.

Chains of the proteins cited; added tags and fusions are not shown.
UniProt Q07820, whole entry: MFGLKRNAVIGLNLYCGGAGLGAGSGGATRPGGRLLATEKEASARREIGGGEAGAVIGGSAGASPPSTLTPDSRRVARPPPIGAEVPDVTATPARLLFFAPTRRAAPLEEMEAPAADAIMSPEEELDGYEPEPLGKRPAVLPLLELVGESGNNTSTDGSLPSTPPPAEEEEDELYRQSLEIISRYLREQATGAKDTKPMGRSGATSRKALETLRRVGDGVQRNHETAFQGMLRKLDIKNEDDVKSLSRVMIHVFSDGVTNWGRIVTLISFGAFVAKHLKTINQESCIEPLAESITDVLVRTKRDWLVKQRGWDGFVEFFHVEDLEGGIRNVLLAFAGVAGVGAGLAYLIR

Target: Induced myeloid leukemia cell differentiation protein Mcl-1 (Homo sapiens) (UniProt Q07820)
Assay: blockers of Bid binding to Mcl-1 – biochemical, TR-FRET, dose response (AID 1418)
Conditions: Mcl-1/Bid peptide binding, TR-FRET (europium/Dy647), 2 hr

How did the IC50 turn out when `Cc1ccc(OCC(C)C)c(CN(CCCl)CCCl)c1` was run?
The IC50 was inactive: > 54 µM.
